# Antibody variant affinities, Ab-14 heavy chain, assay 1

Source: Engelhart et al. 2022 (doi:10.1038/s41597-022-01779-4), MIT Lincoln Laboratory and A-Alpha Bio; data file from the FLAb repository.

Target peptide (SARS-CoV-2 spike, HR2 region): PDVDLGDISGINAS

Parent scFv Ab-14: VH joined to VL by three GGGGS repeats. Changes lie in the heavy chain CDRs alone.
VH: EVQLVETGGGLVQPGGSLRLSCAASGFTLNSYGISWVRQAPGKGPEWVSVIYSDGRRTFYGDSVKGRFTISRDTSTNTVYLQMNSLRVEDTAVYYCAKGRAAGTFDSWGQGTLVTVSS
VL: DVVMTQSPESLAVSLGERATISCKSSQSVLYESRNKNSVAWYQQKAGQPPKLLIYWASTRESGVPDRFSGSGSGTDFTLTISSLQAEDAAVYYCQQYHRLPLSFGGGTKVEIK

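The starting antibody came from a phage panning campaign against this peptide. The library (AAYL49) carries one to three amino acid substitutions per variant, with no insertions or deletions. In AlphaSeq, yeast of one mating type display the scFv and yeast of the other type display the target. After mating in shaken culture at 30 °C for 16 h, diploids were selected and their barcode pairs sequenced. A regression on co-assayed BCL2-family reference pairs converts the normalised counts of each replicate to an apparent Kd. There are three technical replicates.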

Changes read parent residue, position, new residue, counted from the first residue of the VH shown.
This list gathers variants with a substitution at G99 (VH, numbered from residue 1).
Kd is apparent (estimated from mating counts) and averaged on the log scale over replicates with a signal. Smaller is tighter.
"nd" means that the variant was in the library but no mating with the target was seen in any replicate; the authors take this as a sign of poor binding, and no number exists.
The list is sorted by this average, lowest first, undetected variants last.
Nonspecific signal, from three strains lacking the peptide, appeared in 15% of pairings of library AAYL49, centred on 11 µM (5% of these signals below 680 nM); values are not corrected for it.

The variant L29I+G99D gave 3.4 nM (3 of 3 replicates). The variant T28K+G99C+G103H showed 5.9 nM (3 of 3 replicates). The variant G99P+A102L gave 27 nM (3 of 3 replicates). For N30A+D62N+G99S, the assay gave 53 nM (3 of 3 replicates). For N30R+K65I+G99H, the assay gave 190 nM (3 of 3 replicates). The variant F27T+G99M gave 390 nM (3 of 3 replicates). With F27W+G99Y+F105S the result was 740 nM (3 of 3 replicates). The variant F27V+V50R+G99H gave 760 nM (1 of 3 replicates). With G99I+A101Y the result was 1.5 µM (2 of 3 replicates).

For V64H+G99T, the assay gave 1.7 µM (1 of 3 replicates). The variant I51S+G99L+F105N showed 1.9 µM (1 of 3 replicates). For T28W+I34R+G99N, the assay gave 2.2 µM (2 of 3 replicates). For D54S+G99Q, the assay gave 2.4 µM (1 of 3 replicates). The variant S31E+S53P+G99Q gave 2.9 µM (1 of 3 replicates). For V64L+G99F+A102P, the assay gave 3.0 µM (1 of 3 replicates). With D54E+K65F+G99I the result was 9.4 µM (1 of 3 replicates). With G55Q+D62T+G99R the result was 18 µM (2 of 3 replicates). For Y52V+G99E+S107M, the assay gave 22 µM (2 of 3 replicates).

For G33H+D54R+G99F, the assay gave 22 µM (2 of 3 replicates). The variant V50T+G61T+G99H gave 42 µM (3 of 3 replicates). For Y52P+Y60R+G99V, the assay gave 44 µM (1 of 3 replicates). The variant S31V+G99F+R100L gave 48 µM (1 of 3 replicates). For G61S+G99A+D106F, the assay gave 67 µM (2 of 3 replicates). For Y32T+Y52C+G99Y, the assay gave 110 µM (2 of 3 replicates). For V50C+Y60N+G99M, the assay gave 110 µM (2 of 3 replicates). For N30I+G61S+G99R, the assay gave 120 µM (1 of 3 replicates). The variant I51V+G61A+G99S gave 140 µM (2 of 3 replicates).

The variant Y60P+G99Q+F105W gave 170 µM (2 of 3 replicates). With I34A+G99N+G103K the result was 210 µM (2 of 3 replicates). The variant F27L+S31T+G99P showed nd (0 of 3 replicates). With G26A+G61F+G99V the result was nd (0 of 3 replicates). The variant G26M+S63C+G99D gave nd (0 of 3 replicates). The variant T28G+K65M+G99T showed nd (0 of 3 replicates). With T28P+S53L+G99I the result was nd (0 of 3 replicates). With G33K+I51Y+G99L the result was nd (0 of 3 replicates). The variant I34E+G99F gave nd (0 of 3 replicates).

For S31G+G55N+G99L, the assay gave nd (0 of 3 replicates). With G99C+A102E the result was nd (0 of 3 replicates). The variant R57I+G99M+F105S gave nd (0 of 3 replicates). The variant D54K+G99Q+D106E gave nd (0 of 3 replicates). With L29Q+I34M+G99F the result was nd (0 of 3 replicates). The variant Y52P+G99I+S107R showed nd (0 of 3 replicates). The variant S53H+V64H+G99N gave nd (0 of 3 replicates). For S35V+G99K+D106K, the assay gave nd (0 of 3 replicates). The variant F27I+G33P+G99F showed nd (0 of 3 replicates).

The variant G61I+G99H+A101T gave nd (0 of 3 replicates). The variant V50K+G99V+A102N showed nd (0 of 3 replicates).

For reference, the parent read 4.4 nM as the reference entry and 13 µM (one replicate of three) as a member of this library.